Results from ChEMBL document CHEMBL1146149, “The development of 2-benzimidazole substituted pyrimidine based inhibitors of lymphocyte specific kinase (Lck)” (Bioorg Med Chem Lett, 2006).

Protein sequences, listed by entry. Tags and fused reporters are not part of them. Lines headed by an entry give the natural chain unless they say otherwise; changes in a name come on top.
UniProt P08631: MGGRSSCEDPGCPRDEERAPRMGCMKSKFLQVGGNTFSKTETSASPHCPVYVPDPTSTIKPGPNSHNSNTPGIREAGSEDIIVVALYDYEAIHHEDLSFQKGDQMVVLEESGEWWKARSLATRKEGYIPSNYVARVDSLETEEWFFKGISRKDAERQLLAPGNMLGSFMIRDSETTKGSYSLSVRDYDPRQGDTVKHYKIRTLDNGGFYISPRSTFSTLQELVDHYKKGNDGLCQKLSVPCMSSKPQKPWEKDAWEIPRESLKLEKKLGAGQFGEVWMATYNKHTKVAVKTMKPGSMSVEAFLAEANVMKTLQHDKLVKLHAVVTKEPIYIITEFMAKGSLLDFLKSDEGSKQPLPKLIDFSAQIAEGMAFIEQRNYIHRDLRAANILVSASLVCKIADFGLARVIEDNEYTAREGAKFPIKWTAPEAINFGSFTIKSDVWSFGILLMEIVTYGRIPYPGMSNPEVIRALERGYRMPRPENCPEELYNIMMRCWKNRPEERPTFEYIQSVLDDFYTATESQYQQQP

Target: Tyrosine-protein kinase HCK (Homo sapiens, UniProt P08631)
Test: Inhibition of human recombinant Hck by ProFlour assay

IC50: 46 nM
SMILES: CCN(CC)CCNc1cc(Nc2cc(O)ccc2C)nc(-n2cnc3ccccc32)n1
